Target: Recombinant heterodimeric HCV NS3/NS4A protease (strain 1a) (Hepatitis C virus genotype 1a, UniProt P27958)
Test: Spectrophotometric assay for HCV protease inhibitory activity
Format: biochemical
Settings: Table 1, range

By UniProt entry, the sequences of proteins in these tests, tags left out. Residues count along the entry.
UniProt P27958, 1027-1657: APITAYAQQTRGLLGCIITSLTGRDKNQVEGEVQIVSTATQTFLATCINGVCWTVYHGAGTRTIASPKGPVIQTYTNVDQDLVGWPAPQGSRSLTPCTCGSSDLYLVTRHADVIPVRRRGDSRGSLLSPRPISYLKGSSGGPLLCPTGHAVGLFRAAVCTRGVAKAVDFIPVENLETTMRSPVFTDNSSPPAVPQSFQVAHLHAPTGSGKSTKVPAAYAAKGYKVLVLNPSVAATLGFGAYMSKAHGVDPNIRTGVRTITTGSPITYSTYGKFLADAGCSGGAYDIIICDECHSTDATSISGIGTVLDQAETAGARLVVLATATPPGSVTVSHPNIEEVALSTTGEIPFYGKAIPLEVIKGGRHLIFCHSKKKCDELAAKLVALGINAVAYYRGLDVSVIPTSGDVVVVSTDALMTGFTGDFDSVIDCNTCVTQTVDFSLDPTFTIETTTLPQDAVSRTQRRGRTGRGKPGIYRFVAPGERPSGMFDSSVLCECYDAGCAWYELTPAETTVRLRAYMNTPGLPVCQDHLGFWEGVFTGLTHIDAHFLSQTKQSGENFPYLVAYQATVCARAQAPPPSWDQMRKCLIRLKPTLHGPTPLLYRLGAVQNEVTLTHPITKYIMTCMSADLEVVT
UniProt P27958, 1658-1711: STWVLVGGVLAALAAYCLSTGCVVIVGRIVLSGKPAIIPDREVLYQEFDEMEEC

Row | SMILES | Ki [nM]
1 | C=CCNC(=O)C(=O)C(CCC)NC(=O)[C@@H]1[C@@H]2[C@H](CN1C(=O)[C@@H](NC(=O)N[C@H](CNS(=O)(=O)NC(=O)OCc1ccccc1)C(C)(C)C)C(C)(C)C)C2(C)C (stereo partly drawn) [Compound 10019] | ≤ 75
2 | C=CCNC(=O)C(=O)C(CCCC)NC(=O)[C@@H]1[C@@H]2[C@H](CN1C(=O)[C@@H](NC(=O)N[C@H](CNS(=O)(=O)N(C)C)C(C)C)C(C)(C)C)C2(C)C (stereo partly drawn) [Compound 10006] | 75 to 250
3 | C=CCNC(=O)C(=O)[C@@H](CCC)NC(=O)[C@@H]1[C@@H]2[C@H](CN1C(=O)[C@@H](NC(=O)N[C@H](CN(C)S(=O)(=O)N(C)C)C1CCCCC1)C1CCCCC1)C2(C)C [Compound 10025] | ≤ 75
4 | C=CCNC(=O)C(=O)C(CCC)NC(=O)[C@@H]1[C@@H]2[C@H](CN1C(=O)[C@@H](NC(=O)N[C@H](CN(C)S(=O)(=O)N(C)C)C(C)(C)C)C1CCCCC1)C2(C)C (stereo partly drawn) [Compound 10002] | ≤ 75

Same assay, conditions: Table 2, range

Row | SMILES | Ki [nM]
5 | C=CCNC(=O)C(=O)C(CC1CCC1)NC(=O)[C@@H]1[C@@H]2[C@H](CN1C(=O)[C@@H](NC(=O)N[C@H](CN(CC1CC1)S(=O)(=O)c1cccs1)C(C)(C)C)C(C)(C)C)C2(C)C (stereo partly drawn) [Compound 11243] | 75 to 250
6 | C#CCNC(=O)C(=O)C(CCCC)NC(=O)[C@@H]1[C@@H]2[C@H](CN1C(=O)[C@@H](NC(=O)N[C@H](CN(C)S(C)(=O)=O)C(C)(C)C)C1(C)CCCCC1)C2(C)C (stereo partly drawn) [Compound 11299] | ≤ 75
7 | C=CCNC(=O)C(=O)C(CCCC)NC(=O)[C@@H]1[C@@H]2[C@H](CN1C(=O)[C@@H](NC(=O)N[C@H](CN(C)S(C)(=O)=O)C(C)(C)C)C1Cc3ccccc3C1)C2(C)C (stereo partly drawn) [Compound 11266] | ≤ 75
8 | C=CCNC(=O)C(=O)C(CC1CC1)NC(=O)[C@@H]1[C@@H]2[C@H](CN1C(=O)[C@@H](NC(=O)N[C@H](CN(C)S(=O)(=O)c1ccccn1)C(C)(C)C)C1(C)CCCCC1)C2(C)C (stereo partly drawn) [Compound 11367] | ≤ 75
9 | CC(C)[C@@H](CN(C)S(=O)(=O)c1ccccc1)NC(=O)N[C@H](C(=O)N1C[C@H]2[C@@H]([C@H]1C(=O)NC(CC1CC1)C(=O)C(N)=O)C2(C)C)C1CCCCC1 (stereo partly drawn) [Compound 11046] | ≤ 75
10 | C=CCNC(=O)C(=O)C(CCC)NC(=O)[C@@H]1[C@@H]2[C@H](CN1C(=O)[C@@H](NC(=O)NC1(CN(C)S(C)(=O)=O)CCCCC1)C(C)(C)C)C2(C)C (stereo partly drawn) [Compound 11061] | ≤ 75
11 | C=CCNC(=O)C(=O)C(CCCC)NC(=O)[C@@H]1[C@@H]2[C@H](CN1C(=O)[C@@H](NC(=O)N[C@H](CN(C(C)C)S(=O)(=O)c1cccs1)C(C)(C)C)C(C)(C)C)C2(C)C (stereo partly drawn) [Compound 11101] | ≤ 75
12 | C=CCNC(=O)C(=O)C(CC1CC1)NC(=O)[C@@H]1[C@@H]2[C@H](CN1C(=O)[C@@H](NC(=O)N[C@H](CN(C)S(=O)(=O)c1cccs1)CC(C)(C)C)C(C)(C)C)C2(C)C (stereo partly drawn) [Compound 11108] | ≤ 75
13 | C#CCCC(NC(=O)[C@@H]1[C@@H]2[C@H](CN1C(=O)[C@@H](NC(=O)N[C@H]1CCCC[C@H]1N(C)S(C)(=O)=O)C(C)(C)C)C2(C)C)C(=O)C(=O)NCC=C (stereo partly drawn) [Compound 11284] | 75 to 250
14 | C=CCNC(=O)C(=O)C(CCC)NC(=O)[C@@H]1[C@@H]2[C@H](CN1C(=O)[C@@H](NC(=O)N[C@H](CN(C)S(=O)(=O)CC)C(C)(C)C)C1(C)CCCCC1)C2(C)C (stereo partly drawn) [Compound 11327] | ≤ 75
15 | CCCCC(NC(=O)[C@@H]1[C@@H]2[C@H](CN1C(=O)[C@@H](NC(=O)N[C@H](CN(C)S(=O)(=O)c1cccs1)C(C)(C)C)C(C)(C)C)C2(C)C)C(=O)C(=O)NCC (stereo partly drawn) [Compound 11105] | ≤ 75
16 | C=CCNC(=O)C(=O)C(CCC)NC(=O)[C@@H]1[C@@H]2[C@H](CN1C(=O)[C@@H](NC(=O)N[C@H](CN(C)S(C)(=O)=O)C(C)(C)C)C1CCCCC1)C2(C)C (stereo partly drawn) [Compound 11081] | ≤ 75
17 | C=CCNC(=O)C(=O)C(CC1CC1)NC(=O)[C@@H]1[C@@H]2[C@H](CN1C(=O)[C@@H](NC(=O)N[C@H](CN(C)S(=O)(=O)c1sc(C)nc1C)C(C)(C)C)C(C)(C)C)C2(C)C (stereo partly drawn) [Compound 11116] | ≤ 75
18 | C=CCNC(=O)C(=O)C(CCCC)NC(=O)[C@@H]1[C@@H]2[C@H](CN1C(=O)[C@@H](NC(=O)N[C@H](CN(C)S(C)(=O)=O)C(C)(C)C)C(C)(C)C)C2(C)C (stereo partly drawn) [Compound 11062] | ≤ 75
19 | CN(C1(CNC(=O)N[C@H](C(=O)N2C[C@H]3[C@@H]([C@H]2C(=O)NC(CC2CC2)C(=O)C(N)=O)C3(C)C)C(C)(C)C)CCCCC1)S(C)(=O)=O (stereo partly drawn) [Compound 11234] | ≤ 75
20 | CCCCC(NC(=O)[C@@H]1[C@@H]2[C@H](CN1C(=O)[C@@H](NC(=O)N[C@H](CN(C)S(=O)(=O)c1cccs1)C(C)(C)C)C(C)(C)C)C2(C)C)C(=O)C(=O)NCCC (stereo partly drawn) [Compound 11260] | ≤ 75
21 | CCCCC(NC(=O)[C@@H]1[C@@H]2[C@H](CN1C(=O)[C@@H](NC(=O)N[C@H](CN(C)S(C)(=O)=O)C(C)(C)C)C(C)(C)C)C2(C)C)C(=O)C(=O)NCCOC (stereo partly drawn) [Compound 11264] | ≤ 75
22 | C#CCCC(NC(=O)[C@@H]1[C@@H]2[C@H](CN1C(=O)[C@@H](NC(=O)N[C@H](CN(C)S(=O)(=O)c1cccs1)C(C)(C)C)C1CCCCC1)C2(C)C)C(=O)C(=O)NCC=C (stereo partly drawn) [Compound 11294] | ≤ 75
23 | CCN(C[C@@H](NC(=O)N[C@H](C(=O)N1C[C@H]2[C@@H]([C@H]1C(=O)NC(CC1CCC1)C(=O)C(N)=O)C2(C)C)C(C)(C)C)C(C)(C)C)S(C)(=O)=O (stereo partly drawn) [Compound 11184] | ≤ 75
24 | CC(C)(C)[C@H](NC(=O)N[C@H](CN(CC1CCCCC1)S(C)(=O)=O)C(C)(C)C)C(=O)N1C[C@H]2[C@@H]([C@H]1C(=O)NC(CC1CCC1)C(=O)C(N)=O)C2(C)C (stereo partly drawn) [Compound 11174] | ≤ 75
25 | CCCCC(NC(=O)[C@@H]1[C@@H]2[C@H](CN1C(=O)[C@@H](NC(=O)N[C@H](CN(C)S(C)(=O)=O)C(C)(C)C)C1(C)CCCCC1)C2(C)C)C(=O)C(=O)NCC (stereo partly drawn) [Compound 11199] | ≤ 75
26 | CC(C)[C@@H](CN(C)S(=O)(=O)c1ccccc1)NC(=O)N[C@H](C(=O)N1C[C@H]2[C@@H]([C@H]1C(=O)NC(CC1CCC1)C(=O)C(N)=O)C2(C)C)C1CCCCC1 (stereo partly drawn) [Compound 11050] | ≤ 75
27 | C=CCNC(=O)C(=O)C(CCCC)NC(=O)[C@@H]1[C@@H]2[C@H](CN1C(=O)[C@@H](NC(=O)N[C@H](CN(CC)S(=O)(=O)c1cccs1)C(C)(C)C)C(C)(C)C)C2(C)C (stereo partly drawn) [Compound 11223] | ≤ 75
28 | CC(C)[C@@H](CN(C)S(C)(=O)=O)NC(=O)N[C@H](C(=O)N1C[C@H]2[C@@H]([C@H]1C(=O)NC(CC1CC1)C(=O)C(N)=O)C2(C)C)C(C)(C)C (stereo partly drawn) [Compound 11019] | ≤ 75

Same assay, conditions: Table 3, range

Row | SMILES | Ki [nM]
29 | CC(C)(C)[C@H](NC(=O)NC1(CNS(=O)(=O)C2CC2)CCCCC1)C(=O)N1C[C@H]2[C@@H]([C@H]1C(=O)NC(CC1CC1)C(=O)C(N)=O)C2(C)C (stereo partly drawn) [Compound 12017] | ≤ 75
30 | CC(C)[C@@H](CNS(=O)(=O)C1CC1)NC(=O)N[C@H](C(=O)N1C[C@H]2[C@@H]([C@H]1C(=O)NC(CC1CCC1)C(=O)C(N)=O)C2(C)C)C(C)(C)C (stereo partly drawn) [Compound 12010] | ≤ 75

Same assay, conditions: Table 4, range

Row | SMILES | Ki [nM]
31 | C=CCNC(=O)C(=O)C(CCC)NC(=O)[C@@H]1[C@@H]2[C@H](CN1C(=O)[C@@H](NC(=O)N[C@H](CN(C)C(C)=O)C(C)(C)C)C(C)(C)C)C2(C)C (stereo partly drawn) [Compound 13001] | ≤ 75
32 | CNC(=O)C(=O)C(CC1CC1)NC(=O)[C@@H]1[C@@H]2[C@H](CN1C(=O)[C@@H](NC(=O)N[C@H](CN(C)C(C)=O)C(C)(C)C)C(C)(C)C)C2(C)C (stereo partly drawn) [Compound 13016] | ≤ 75

Same assay, conditions: Table 5, range

Row | SMILES | Ki [nM]
33 | CC(C)OC(=O)NC[C@@H](NC(=O)N[C@H](C(=O)N1C[C@H]2[C@@H]([C@H]1C(=O)NC(CC1CC1)C(=O)C(N)=O)C2(C)C)C(C)(C)C)C(C)C (stereo partly drawn) [Compound 14021] | ≤ 75
34 | C=CCNC(=O)C(=O)C(CC1CC1)NC(=O)[C@@H]1[C@@H]2[C@H](CN1C(=O)[C@@H](NC(=O)N[C@H](CNC(=O)OC(C)C)C(C)C)C(C)(C)C)C2(C)C (stereo partly drawn) [Compound 14024] | 75 to 250
35 | CC(C)(C)OC(=O)NCC1(NC(=O)N[C@H](C(=O)N2C[C@H]3[C@@H]([C@H]2C(=O)NC(CC2CCC2)C(=O)C(N)=O)C3(C)C)C(C)(C)C)CCCCC1 (stereo partly drawn) [Compound 14004] | ≤ 75

Same assay, conditions: Table 5A, range

Row | SMILES | Ki [nM]
36 | CCS(=O)(=O)N(C)C[C@@H](NC(=O)N[C@H](C(=O)N1C[C@H]2[C@@H]([C@H]1C(=O)NC(CC1CC1)C(=O)C(=O)NC1CC1)C2(C)C)C1Cc2ccccc2C1)C(C)(C)C (stereo partly drawn) [Compound 11415] | ≤ 75
37 | C=CCNC(=O)C(=O)C(CC1CC1)NC(=O)[C@@H]1[C@@H]2[C@H](CN1C(=O)[C@@H](NC(=O)N[C@H](CN(C)S(=O)(=O)c1cccnc1)C(C)(C)C)C(C)(C)C)C2(C)C (stereo partly drawn) [Compound 11407] | ≤ 75
38 | C=CCNC(=O)C(=O)C(CCC)NC(=O)[C@@H]1[C@@H]2[C@H](CN1C(=O)[C@@H](NC(=O)N[C@H](CN(C)S(=O)(=O)c1ccccn1)C(C)(C)C)C1Cc3ccccc3C1)C2(C)C (stereo partly drawn) [Compound 11393] | ≤ 75
39 | CCCCC(NC(=O)[C@@H]1[C@@H]2[C@H](CN1C(=O)[C@@H](NC(=O)N[C@H](CN(CC)S(=O)(=O)CC)C(C)(C)C)C1Cc3ccccc3C1)C2(C)C)C(=O)C(=O)NC1CC1 (stereo partly drawn) [Compound 11404] | ≤ 75
40 | CCCCC(NC(=O)[C@@H]1[C@@H]2[C@H](CN1C(=O)[C@@H](NC(=O)N[C@H](CN(C)S(=O)(=O)CC)C(C)(C)C)C1Cc3ccccc3C1)C2(C)C)C(=O)C(=O)NCCC (stereo partly drawn) [Compound 11398] | ≤ 75
41 | C#CCCC(NC(=O)[C@@H]1[C@@H]2[C@H](CN1C(=O)[C@@H](NC(=O)N[C@H](CN(C)S(=O)(=O)c1ccccn1)C(C)(C)C)C1Cc3ccccc3C1)C2(C)C)C(=O)C(=O)NCC=C (stereo partly drawn) [Compound 11395] | ≤ 75
42 | CCCC(NC(=O)[C@@H]1[C@@H]2[C@H](CN1C(=O)[C@@H](NC(=O)N[C@H](CN(CC)S(=O)(=O)CC)C(C)(C)C)C1Cc3ccccc3C1)C2(C)C)C(=O)C(=O)NC1CC1 (stereo partly drawn) [Compound 11416] | ≤ 75

Same assay, conditions: Table 6

Row | SMILES | Ki [nM]
43 | CN(C[C@@H](NC(=O)N[C@H](C(=O)N1C[C@H]2[C@@H]([C@H]1C(=O)NC(CC1CCC1)C(=O)C(N)=O)C2(C)C)C(C)(C)C)C(C)(C)C)S(=O)(=O)c1ccccc1 (stereo partly drawn) [drawing 51] | 5
44 | CN(C[C@@H](NC(=O)N[C@H](C(=O)N1C[C@H]2[C@@H]([C@H]1C(=O)NC(CC1CCC1)C(=O)C(N)=O)C2(C)C)C(C)(C)C)C(C)(C)C)S(=O)(=O)c1cccs1 (stereo partly drawn) [drawing 52] | 3.7
45 | C#CCCC(NC(=O)[C@@H]1[C@@H]2[C@H](CN1C(=O)[C@@H](NC(=O)N[C@H](CN(C)S(=O)(=O)c1ccccn1)C(C)(C)C)C1Cc3ccccc3C1)C2(C)C)C(=O)C(=O)NCC=C (stereo partly drawn) [Compound 11395] | 8

— US7759499B2, “Compounds as inhibitors of hepatitis C virus NS3 serine protease” (Schering Corporation, priority 2004, dated 2010)
